ChEMBL document CHEMBL3872219, “Computational and synthetic approaches for developing Lavendustin B derivatives as allosteric inhibitors of HIV-1 integrase” (Eur J Med Chem, 2016)

Experiment: Ratio of IC50 for FLAG or His-tagged HIV1 integrase 3' processing activity to IC50 for His-tagged LEDGF/p75 (unknown origin) dependent FLAG or His-tagged HIV1 integrase activity

## O=C(O)c1cc(N(Cc2ccccc2Cl)Cc2ccccc2Cl)ccc1O
  Ratio IC50: 8
